The source of these data is patent US9426989B2 (priority 2010, dated 2016).

Some compounds may have been tested in ways that are not shown here. Some results are limits rather than exact numbers.

This data set in a line: Stability of the compounds assessed by NMR (PBS, MEM).

As for `CCC(OO)OO`, the Degradation is, setting by setting: (MEM: 24 hours, 5° C.) under 5%; (MEM: 24 hours, 25° C.) 15%; (MEM: 24 hours, 37° C.) 43%; (PBS: 16 hours, 2-8° C., then 3 hours at 37° C.) 40%.
